Reference: patent US9758541B2 (priority 2013, dated 2017)

Conditions: after preparative HPLC separation

2-ferrocenyl-1-(4-hydroxyphenyl)-5-hydroxy-1-phenyl-pent-1-ene [P681]
conversion of separated isomers into the 50/50 mixture: slowly converted into the 50/50 mixture

Methyl 4-ene-4-ferrocenyl-5-(4-hydroxyphenyl)-5-phenyl-pentanoate [P680]
time for separated Z and E isomers to convert into the 50/50 mixture: less than 12 hours
